# Apparent affinities of Ab-91 variants for a coronavirus HR2 peptide

The target is the same throughout: PDVDLGDISGINAS, from the HR2 region of SARS-CoV-2 spike.

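Phage display of a naive human antibody library on the peptide gave the parent. AAYL51 was designed without a model: most single CDR substitutions and a random sample of double and triple ones. The scFvs were displayed on barcoded MATa yeast, the peptide on MATalpha yeast. After mating in shaken culture at 30 °C for 16 h, diploids were selected and their barcode pairs sequenced. Each replicate has its own calibration line, from reference interactions of the BCL2 family. Each pool was mated in three replicate cultures.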

Parent scFv Ab-91: VL joined to VH by the linker GGGGSGGGGSGGGGS. Changes lie in the heavy chain CDRs alone.
VL: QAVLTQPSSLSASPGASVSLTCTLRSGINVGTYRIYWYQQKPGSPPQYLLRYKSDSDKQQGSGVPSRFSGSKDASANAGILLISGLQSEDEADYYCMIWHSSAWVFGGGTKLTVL
VH: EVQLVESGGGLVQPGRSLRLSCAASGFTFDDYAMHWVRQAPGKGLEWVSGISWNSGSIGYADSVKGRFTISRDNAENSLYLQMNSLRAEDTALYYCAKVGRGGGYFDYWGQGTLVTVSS

Substitutions are numbered in sequence along the VH above, starting at 1 (not Kabat). Affinities are written as log10 Kd with Kd in nM; a lower number is a better binder. The mean shown is taken over the replicates in which the pair was detected. "n.d." marks a missing value. The strain was present, yet no cells mated with the target were sequenced in that replicate, which points to weak or no binding.

changes,"log10 Kd, replicates","mean, log10 nM",signal with controls
G50Y+S57G+D107H,n.d. / 5.52 / n.d.,5.52,4/9 (4.95)
H35L+A61T+Y108Q,3.82 / n.d. / n.d.,3.82,2/9 (3.26)
A33Y+G100A+D107E,n.d. / 3.42 / n.d.,3.42,1/9 (3.37)
G56V+K65D,n.d. / n.d. / n.d.,n.d.,0/9
D31E+A61N+K65D,n.d. / n.d. / n.d.,n.d.,0/9
G26T+D62G+G100W,n.d. / n.d. / n.d.,n.d.,6/9 (4.68)
N54T+G103S,n.d. / n.d. / n.d.,n.d.,0/9
I51W+K65D+Y105F,4.76 / n.d. / n.d.,4.76,0/9
A33C+S55G+S63I,n.d. / n.d. / n.d.,n.d.,2/9 (3.64)
G26W+D31T+S52Y,n.d. / n.d. / n.d.,n.d.,0/9
S55Q+V99F+G104L,n.d. / n.d. / 4.33,4.33,3/9 (4.48)
F27L+N54V+G100A,n.d. / n.d. / n.d.,n.d.,0/9
G26T+F27A+A33L,n.d. / 4.56 / n.d.,4.56,2/9 (4.96)
Y32E+G102I+Y108D,n.d. / n.d. / n.d.,n.d.,0/9
W53M+Y60M+F106Q,n.d. / n.d. / n.d.,n.d.,1/9 (2.97)
A33M+F106Q+Y108Q,n.d. / n.d. / n.d.,n.d.,0/9
G56H+G100E+R101L,3.92 / 3.63 / n.d.,3.77,2/9 (4.07)
T28H+G56R+D62I,n.d. / n.d. / n.d.,n.d.,0/9
A61C+G100S+Y108N,5.05 / 5.21 / 4.31,4.86,7/9 (5.32)
F29G+V64M+Y105S,n.d. / n.d. / n.d.,n.d.,0/9
S52I+V64I+V99R,4.26 / n.d. / n.d.,4.26,4/9 (5.01)
F29W+Y60D+V99K,n.d. / n.d. / 4.73,4.73,2/9 (3.62)
S57V,4.45 / 3.66 / 4.56,4.22,3/9 (3.91)
F29V+D62I+G103L,n.d. / n.d. / n.d.,n.d.,0/9
H35E+A61N+F106I,n.d. / n.d. / n.d.,n.d.,1/9 (2.72)
D30K+G56N,1.42 / 1.48 / 1.02,1.31,6/9 (5.28)
I51Q+W53L+S63T,5.02 / 5.55 / 4.24,4.94,4/9 (4.69)
Y32I+G104S,4.27 / 5.65 / 5.55,5.16,6/9 (5.13)
S55Y+S57L+I58E,n.d. / n.d. / n.d.,n.d.,2/9 (3.84)
H35Y+Y60C+V64A,n.d. / n.d. / n.d.,n.d.,2/9 (4.15)
G26N+N54M+G100Y,4.18 / n.d. / n.d.,4.18,1/9 (4.24)
A33M+I51P+G59T,n.d. / n.d. / n.d.,n.d.,0/9
W53V+S55R+S63G,5.04 / 6.48 / 4.86,5.46,5/9 (4.54)
G26W+G50S+G103N,n.d. / n.d. / 5.16,5.16,2/9 (5.07)
S52R+V99P+G104T,5.53 / n.d. / n.d.,5.53,4/9 (4.10)
T28K+S57K+Y105V,3.07 / n.d. / n.d.,3.07,1/9 (3.58)
D62F+Y105P+D107Y,n.d. / n.d. / n.d.,n.d.,1/9 (4.21)
F29N+S57N+K65Q,n.d. / 4.04 / n.d.,4.04,1/9 (4.53)
N54S+A61V+V64Q,5.90 / 6.07 / 5.01,5.66,7/9 (5.11)
G26T+F27D+H35C,n.d. / n.d. / n.d.,n.d.,0/9
F29G+G56P,n.d. / n.d. / n.d.,n.d.,0/9
M34E+A61I,n.d. / 5.28 / n.d.,5.28,0/9
A33P+M34P+D62N,n.d. / n.d. / n.d.,n.d.,0/9
D30V+S63L+R101G,n.d. / n.d. / n.d.,n.d.,0/9
F27V+S52M+G103M,5.50 / n.d. / 5.52,5.51,6/9 (5.37)
M34P+G59Q,n.d. / 4.63 / 4.88,4.75,1/9 (3.58)
Y108D,n.d. / n.d. / n.d.,n.d.,1/9 (4.70)

For reference, 6 entries of the list once more:

changes	log10 Kd, replicates	mean, log10 nM	signal with controls
F29W+Y60D+V99K	n.d. / n.d. / 4.73	4.73	2/9 (3.62)
W53V+S55R+S63G	5.04 / 6.48 / 4.86	5.46	5/9 (4.54)
A33M+F106Q+Y108Q	n.d. / n.d. / n.d.	n.d.	0/9
F29N+S57N+K65Q	n.d. / 4.04 / n.d.	4.04	1/9 (4.53)
D30K+G56N	1.42 / 1.48 / 1.02	1.31	6/9 (5.28)
H35L+A61T+Y108Q	3.82 / n.d. / n.d.	3.82	2/9 (3.26)

In this assay the parent's reference entry averaged 1.86; its copy inside this library read 0.88. Three control strains display no target. For library AAYL51, 21% of the pairings with them gave a signal, with a median of 4.54 and one signal in twenty below 3.26, so weak values seen in few replicates may be background. For each scFv, signals with the empty controls are counted beside the result, with their mean in brackets.

From the AlphaSeq antibody data of Engelhart et al. 2022 (doi:10.1038/s41597-022-01779-4), copy in the FLAb collection.